One substance from patent US10634665B2 (priority 2014, dated 2020) can be followed below.

The data set concerns lung organ device. In words: Evaluation of non-toxic and toxic compounds in the lung organ device. Conditions: low doses.

Regarding beclonethasone diproprionate, the organ damage entry is given as “no organ damage”.
